Experimental data reported in US20180021288A1, “Neuroprotection in Demyelinating Diseases” (Biogen MA Inc., priority 2010, published 2018).

Tests used:
[1] = system: Encephalomyocarditis virus (ECM); conditions: cited from earlier work
[2] = human, in vivo

AVONEX®: 166 amino acid glycoprotein produced by recombinant DNA technology in Chinese Hamster Ovary cells
antiviral activity contained in 30 mcg ([1]; AVONEX 30 mcg): approximately 6 million IU
specific activity (antiviral activity) ([1]; WHO natural interferon beta standard, Gb-23-902-531): approximately 200 million international units (IU) of antiviral activity per mg of Interferon beta-1a

IM IFN-beta-1a: intramuscular (IM) IFN-beta-1a, single 30-μg injection
temperature and pulse [2]: mild increase
